This data set in a line: clinical. To be noted: human, in vivo, po, 500 mg.

This note sets out measurements from ChEMBL document CHEMBL1649161, “Pharmacokinetics of EDP-420 after ascending single oral doses in healthy adult volunteers” (Antimicrob Agents Chemother, 2009).

Consider `CC[C@H]1OC(=O)[C@H](C)[C@@H](O[C@H]2C[C@@](C)(OC)[C@@H](O)[C@H](C)O2)[C@H](C)[C@@H](O[C@@H]2O[C@H](C)C[C@H](N(C)C)[C@H]2O)[C@](C)(O)C[C@@H](C)C(=O)[C@H](C)[C@@H](O)[C@]1(C)O` [ERYTHROMYCIN], for which the half-life is 2 h.
